Assay [1] is filed under the species Homo sapiens. Kind of assay: Selectivity ratio of IC50 for Aurora-A autophosphorylation at Thr288 in human HCT116 cells to IC50 for Aurora-B autophosphorylation at Thr232 in human HCT116 cells. The format is cell-based.
The species named for assay [2] is Homo sapiens. Kind of assay: Selectivity ratio of IC50 for Aurora-B autophosphorylation at Thr232 in human HCT116 cells to IC50 for Aurora-A autophosphorylation at Thr288 in human HCT116 cells. The format is cell-based.

`O=C(Nc1ccccc1)Nc1ccc(CCNc2ncnc3oc(-c4ccccc4)c(Cl)c23)cc1`: the Ratio IC50 in the assay listed under Homo sapiens [1] amounted to 2.
For the molecule `O=C(Nc1ccc(CCNc2ncnc3oc(-c4ccccc4)c(Cl)c23)cc1)Nc1ccccc1CN1CCC(O)CC1`, the Ratio IC50 in the assay listed under Homo sapiens [1] was 11.4.
As to `CN(C)Cc1cccc(NC(=O)Nc2ccc(CCNc3ncnc4oc(-c5ccccc5)c(Cl)c34)cc2)c1`, the Ratio IC50 in the assay filed under Homo sapiens [2] is over 167.
Still for that read-out and setting: the figure for `CCN(C)Cc1cccc(NC(=O)Nc2ccc(CCNc3ncnc4oc(-c5ccccc5)c(Cl)c34)cc2)c1` is over 75.6.
Consider `CN(C)Cc1ccccc1NC(=O)Nc1ccc(CCNc2ncnc3oc(-c4ccccc4)c(Cl)c23)cc1`, for which, in the assay filed under Homo sapiens [1], the Ratio IC50 came out at 3.1.

The values are drawn from ChEMBL document CHEMBL4152212, “Design and synthesis of BPR1K653 derivatives targeting the back pocket of Aurora kinases for selective isoform inhibition” (Eur J Med Chem, 2018).
